Results taken from patent US9592281B2, “Method for inducing immunity with a peptide fragment from human CAPRIN-1” (Toray Industries, Inc., priority 2008, dated 2017).

Legend:
[1] = tested on: tumor of cancer-bearing dog (breast cancer); test: Antitumor evaluation of recombinant protein in cancer-bearing dog; type: in vivo; conditions: dog with breast cancer; with Freund's incomplete adjuvant, 3 times, plus 100 μg canine interleukin 12 subcutaneously; tumor at administration about 123 mm^3 (SEQ ID NO: 2), about 96 mm^3 (SEQ ID NO: 8)
Experimental: A cancer-bearing dog (breast cancer) having a tumor on the epidermis was subjected to evaluation of the antitumor effects of the recombinant protein purified above.
The recombinant polypeptide having the amino acid sequence shown by SEQ ID NO: 6 purified in the above-described manner (100 μg, 0.5 ml) was mixed with the equivalent amount of the Freund's incomplete adjuvant (Wako Pure Chemical Industries, Ltd.) to prepare a cancer therapeutic agent. The resulting agent was administered 3 times in total to the regional lymph node in the vicinity of the tumor, as an initial-administration, and 3 days and 7 days thereafter. As a result, a tumor about 86 mm^3 in size when the cancer therapeutic agent was administered shrank to 55 mm^3, 30 mm^3, and 20 mm^3 10 days, 20 days, and 30 days after the initial administration, respectively.
A mixture of 0.5 ml of the recombinant polypeptide having the amino acid sequence shown by SEQ ID NO: 2 and 0.5 ml of the Freund's incomplete adjuvant was administered to another dog having breast cancer 3 times in total in the same manner as described above. Also, 100 μg of canine interleukin 12 was administered together with the agent subcutaneously. As a result, a tumor about 123 mm^3 in size when the cancer therapeutic agent was administered completely regressed 45 days after the initial administration of the cancer therapeutic agent. […]

[2] = tested on: canine peripheral blood mononuclear cells; test: ELISpot assay of IFNγ using peripheral blood mononuclear cells of administered dogs; type: cell-based, dog; conditions: 5×10^5 cells/well, restimulated with the administered polypeptide 24 hours, no spots before administration
Description: The blood samples of the clinically affected dogs to which the recombinant polypeptides having the amino acid sequences shown by SEQ ID NO: 6, SEQ ID NO: 2, and SEQ ID NO: 8 had been administered in the administration test conducted in (1) above were obtained before administration and 10 days and 30 days after the initial administration, peripheral blood mononuclear cells were separated in accordance with a conventional technique, and the capacity of the recombinant proteins for immunity induction was evaluated via the ELISpot assay of IFNγ using the peripheral blood mononuclear cells.
70% ethanol was added to a 96-well plate (MultiScreen-IP, MAIPS4510, Millipore) in amounts of 100 μl/well, the plate was allowed to stand for 5 minutes, ethanol was aspirated off, the plate was washed with sterilized water, 200 mM sodium bicarbonate (pH 8.2) was added in amounts of 300 μl/well, the plate was allowed to stand for 5 minutes, sodium bicarbonate was aspirated off, and the plate was washed. […] After the reaction was terminated, the membrane was dried, and the number of the developed spots was counted using the KS Elispot (Carl Zeiss). As a result, no spots were detected in the peripheral blood mononuclear cells of clinically affected dogs before polypeptide administration. […]

B1: SEQ ID NO: 2: recombinant polypeptide having the amino acid sequence shown by SEQ ID NO: 2 (human CAPRIN-1), expressed in E. coli (protein, listed as Homo sapiens)
chain: MPSATSHSGSGSKSSGPPPPSGSSGSEAAAGAGAAAPASQHPATGTGAVQTEAMKQILGVIDKKLRNLEKKKGKLDDYQERMNKGERLNQDQLDAVSKYQEVTNNLEFAKELQRSFMALSQDIQKTIKKTARREQLMREEAEQKRLKTVLELQYVLDKLGDDEVRTDLKQGLNGVPILSEEELSLLDEFYKLVDPERDMSLRLNEQYEHASIHLWDLLEGKEKPVCGTTYKVLKEIVERVFQSNYFDSTHNHQNGLCEEEEAASAPAVEDQVPEAEPEPAEEYTEQSEVESTEYVNRQFMAETQFTSGEKEQVDEWTVETVEVVNSLQQQPQAASPSVPEPHSLTPVAQADPLVRRQRVQDLMAQMQGPYNFIQDSMLDFENQTLDPAIVSAQPMNPTQNMDMPQLVCPPVHSESRLAQPNQVPVQPEATQVPLVSSTSEGYTASQPLYQPSHATEQRPQKEPIDQIQATISLNTDQTTASSSLPAASQPQVFQAGTSKPLHSSGINVNAAPFQSMQTVFNMNAPVPPVNEPETLKQQNQYQASYNQSFSSQPHQVEQTELQQEQLQTVVGTYHGSPDQSHQVTGNHQQPPQQNTGFPRSNQPYYNSRGVSRGGSRGARGLMNGYRGPANGFRGGYDGYRPSFSNTPNSGYTQSQFSAPRDYSGYQRDGYQQNFKRGSGQSGPRGAPRGRGGPPRPNRGMPQMNTQQVN
B1 was tested. Which “tumor completely regressed, time after the initial administration” value [1] did it give?
The value was 45 days.

What about the “number of IFNγ spots detected in peripheral blood mononuclear cells” value ([2]; 10 days after the administration) of the same molecule?
The value was 53 spots.

And the “number of IFNγ spots detected in peripheral blood mononuclear cells” value ([2]; 30 days after the administration)?
The value was 189 spots.
